In patent publication US9695240B2, “Anthracycline derivative conjugates, process for their preparation and their use as antitumor compounds” (Genentech, Inc., priority 2008, dated 2017):

What was measured:
Assay type in all cases: cell-based
Settings in all cases: continuous exposure
[1] = system: SK-BR-3 cells; assay: CellTiter-Glo in vitro cell proliferation assay, SK-BR-3
Procedure: (§1) Generally, the cytotoxic or cytostatic activity of an antibody-drug conjugate (ADC) is measured by: exposing mammalian cells having tumor-associated antigens or receptor proteins to the antibody of the ADC in a cell culture medium; culturing the cells for a period from about 6 hours to about 5 days; and measuring cell viability. Cell-based in vitro assays may be used to measure viability, i.e. proliferation (IC50), cytotoxicity (EC50), and induction of apoptosis (caspase activation) of the ADC. […] This cell proliferation assay determines the number of viable cells in culture based on quantitation of the ATP present, an indicator of metabolically active cells (Crouch et al (1993) J. Immunol. Meth. 160:81-88; U.S. Pat. No. 6,602,677). […]
(§2) The in vitro potency of antibody-drug conjugates was measured by a cell proliferation assay (FIGS. 8-29). […] This assay determines the number of viable cells in culture based on quantitation of the ATP present, an indicator of metabolically active cells (Crouch et al (1993) J. Immunol. Meth. 160:81-88; U.S. Pat. No. 6,602,677). […]
(§3) The homogeneous “add-mix-measure” format results in cell lysis and generation of a luminescent signal proportional to the amount of ATP present. […] Viable cells are reflected in relative luminescence units (RLU). Data can be recorded by luminometer or CCD camera imaging device. The luminescence output is presented as RLU, measured over time. […]

[2] = system: BT-474 cells; assay: CellTiter-Glo in vitro cell proliferation assay, BT-474
Procedure: as §1, §2, §3

[3] = system: doxorubicin-resistant (DoxRes) HER2 cells; assay: CellTiter-Glo in vitro cell proliferation assay, doxorubicin-resistant HER2
Text: Cell-based in vitro assays may be used to measure viability, i.e. proliferation (IC50), cytotoxicity (EC50), and induction of apoptosis (caspase activation) of the ADC. The CellTiter-Glo® Luminescent Cell Viability Assay is a commercially available (Promega Corp., Madison, Wis.), homogeneous assay method based on the recombinant expression of Coleoptera luciferase (U.S. Pat. Nos. 5,583,024; 5,674,713; 5,700,670). This cell proliferation assay determines the number of viable cells in culture based on quantitation of the ATP present, an indicator of metabolically active cells (Crouch et al (1993) J. Immunol. Meth. 160:81-88; U.S. Pat. No. 6,602,677). […]
as §2, §3

trastuzumab: humanized anti-ErbB2 antibody huMAb4D5-8 (HERCEPTIN®, trastuzumab)
SK-BR-3 in vitro cell viability at 3 days, anti-proliferative activity in words [1]: modestly inhibits the growth | BT-474 in vitro cell viability at 3 days, anti-proliferative activity in words [2]: modestly inhibits the growth | DoxRes HER2 in vitro cell viability at 3 days, anti-proliferative activity in words [3]: minimal activity; also recorded: no effect

Entries after “also recorded” stand apart in the source; their conditions may differ.
